Ab-14 light chain CDR variants: yeast mating affinities

Data: MIT Lincoln Laboratory AlphaSeq set, Engelhart et al. 2022, doi:10.1038/s41597-022-01779-4, as distributed in FLAb.

All variants were tested on one target, the spike HR2 peptide PDVDLGDISGINAS (SARS-CoV-2).

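Phage display of a naive human antibody library on the peptide gave the parent. The library (AAYL50) carries one to three amino acid substitutions per variant, with no insertions or deletions. AlphaSeq pools MATa yeast showing the antibodies with MATalpha yeast showing the peptide. The frequency of each diploid, read from paired DNA barcodes, reflects how well the two displayed proteins bind. Scores were corrected for input abundance and mapped to Kd with protein pairs of known affinity run in the same pool. Mating was done three times.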

The variants keep the heavy chain, the linker and the frameworks of Ab-14 (scFv order VH, a (GGGGS)3 linker, VL).
VH: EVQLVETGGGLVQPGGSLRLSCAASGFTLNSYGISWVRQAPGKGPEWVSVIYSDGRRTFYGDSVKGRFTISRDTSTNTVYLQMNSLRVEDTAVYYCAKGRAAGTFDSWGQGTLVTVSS
VL: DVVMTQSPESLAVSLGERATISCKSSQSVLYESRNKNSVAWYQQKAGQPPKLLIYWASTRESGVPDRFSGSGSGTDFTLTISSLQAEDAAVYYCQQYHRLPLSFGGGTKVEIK

Each variant is given by its three light chain CDRs, as the data file delimits them; those of the parent are KSSQSVLYESRNKNSVA, WASTRES, QQYHRLPLS.
Numbers give log10(Kd / nM), so 0 is 1 nM and 3 is 1 µM. Smaller is tighter.
Replicates are averaged; those with no signal do not enter the mean.
An entry "n.d." has no value in the source: the pair was not observed among the diploids in that replicate. This suggests poor binding but is not conclusive.
Background: pairings of library AAYL50 with three empty control strains gave a value in 18% of cases (median 4.19, 5th percentile 2.99). Values in that range, when seen in few replicates, are hard to tell from nonspecific mating. The control count says in how many pairings with the empty strains this scFv gave a signal, with their mean in brackets.

CDR-L1 | CDR-L2 | CDR-L3 | log10 Kd, replicates | log10 Kd (nM), mean | empty controls
KSSQSVLYESRNKNSHS | WASTRES | QQYHRMPLS | 4.82 4.94 4.30 | 4.68 | 5/9 (4.33)
KSSQSVLFESRNKNMVA | WASTRES | QQYDRLPLS | 2.62 2.40 3.36 | 2.79 | 3/9 (3.52)
KSSQSVLYESWCKNSVA | WASTRES | QQYHRMPLS | 3.29 3.29 3.37 | 3.32 | 6/9 (4.23)
KSMQSVLYESRNKNSVA | WASTRES | QEYHRRPLS | n.d. n.d. n.d. | n.d. | 0/9
KSSQSVLYEQRNKNSVF | WAPTRES | QQYHRLPLS | n.d. 3.37 6.06 | 4.72 | 1/9 (3.59)
KSSQSVLYESRNKNSVA | WASTRES | QCYHRVPDS | 1.65 1.78 1.47 | 1.63 | 4/9 (4.27)
SSSKSVLYESRNKNSHA | WASTRES | QQYHRLPLS | n.d. n.d. n.d. | n.d. | 0/9
KSSQSVLYESRNKQSVA | CSSTRES | QQYHRLPLS | 3.14 2.77 3.41 | 3.11 | 0/9
KPVQSVLYESRNKNSVA | WASTRRS | QQYHRLPLS | n.d. n.d. 2.82 | 2.82 | 0/9
KSSQSHLDESRNKNSVA | VASTRES | QQYHRLPLS | n.d. n.d. n.d. | n.d. | 0/9
KSAESVLYESRNKNSVA | WASTREN | QQYHRLPLS | 3.07 4.01 n.d. | 3.54 | 3/9 (3.68)
KSSQMVLYESRNKNSVA | WASTRVC | QQYHRLPLS | 1.29 1.40 1.65 | 1.45 | 2/9 (4.77)
KSSQSVLYESRNKNSVA | WASTEED | QQYHRLPLS | n.d. n.d. n.d. | n.d. | 5/9 (4.49)
KSSQSPLYESRNKNSVA | WASTRES | QQEHRLPLM | n.d. n.d. n.d. | n.d. | 1/9 (3.37)
KSSQSVLYELRNKNSVA | WMSTRES | DQYHRLPLS | n.d. n.d. n.d. | n.d. | 0/9
RSSQSVLYESRNKNSVA | WAVTRES | QQYHRLPLS | 1.86 1.60 1.69 | 1.71 | 1/9 (4.35)
KSSQSVLYESRNKNSVA | WASTRES | QDYHRLPLP | 0.54 0.59 0.57 | 0.56 | 7/9 (5.23)
KSSQSVLYESRNLSSVA | WASTRES | PQYHRLPLS | 2.03 1.64 1.42 | 1.70 | 2/9 (4.10)
KSTQSVLYESRNKNSVA | WASTTMS | QQYHRLPLS | 2.47 2.58 2.99 | 2.68 | 1/9 (3.34)
KSSMSVLYESTNKNSVA | WASTRES | QQYARLPLS | 0.42 0.60 0.39 | 0.47 | 3/9 (4.95)
KSSQSVLYGSIKKNSVA | WASTRES | QQYHRLPLS | 0.71 0.83 0.78 | 0.77 | 3/9 (4.78)
KSSQSVLYESRNKNSVA | WASTRES | QQYRLLPWS | n.d. n.d. n.d. | n.d. | 0/9
KMYQSVLYESRNKNSVA | WKSTRES | QQYHRLPLS | 1.74 1.76 1.84 | 1.78 | 1/9 (4.34)
KSSQSYLYESRNKNSVA | WASTREI | QCYHRLPLS | 1.23 1.36 1.34 | 1.31 | 3/9 (5.21)
KSSKSVLYESANKNSVA | WKSTRES | QQYHRLPLS | 1.99 1.85 2.06 | 1.97 | 2/9 (5.17)
KSSKSVLYESRNKNSVA | WASTRES | SQYHNLPLS | 3.76 2.61 3.07 | 3.15 | 0/9
KSSQSPLYESRNKNSVA | WASTRGS | QQYHRLPAS | 1.70 1.67 2.69 | 2.02 | 1/9 (3.80)
KSSQSVLYESRNKNSVA | WMSFRES | QQYKRLPLS | n.d. n.d. n.d. | n.d. | 0/9
KSSQSQLYESRNKNSVA | WASTRES | QQYHRYCLS | n.d. n.d. n.d. | n.d. | 5/9 (4.41)
KYSQSVLYESRNKNSVA | WASTQES | IQYHRLPLS | 4.86 3.69 6.19 | 4.91 | 4/9 (4.74)
KSLQSVLVESRNKNSVA | YASTRES | QQYHRLPLS | 0.33 0.62 0.51 | 0.48 | 2/9 (4.92)
KFSQSVLYESRNKNSVA | WASTRKR | QQYHRLPLS | n.d. 3.71 n.d. | 3.71 | 2/9 (4.19)
KSSQSVFYGSRNKNSVE | WASTRES | QQYHRLPLS | n.d. 3.88 n.d. | 3.88 | 3/9 (4.72)
KSSQSVLYNSRNKNSVA | WASTRES | QQYHRLPSG | 5.38 n.d. n.d. | 5.38 | 2/9 (4.11)
KSSQSVLYESRNKNFVA | WASTRDS | QQYHRLPLS | 3.68 n.d. n.d. | 3.68 | 3/9 (4.28)

Picked from the list: the 6 lowest averages where every replicate gave a value.

CDR-L1 | CDR-L2 | CDR-L3 | log10 Kd, replicates | log10 Kd (nM), mean | empty controls
KSSMSVLYESTNKNSVA | WASTRES | QQYARLPLS | 0.42 0.60 0.39 | 0.47 | 3/9 (4.95)
KSLQSVLVESRNKNSVA | YASTRES | QQYHRLPLS | 0.33 0.62 0.51 | 0.48 | 2/9 (4.92)
KSSQSVLYESRNKNSVA | WASTRES | QDYHRLPLP | 0.54 0.59 0.57 | 0.56 | 7/9 (5.23)
KSSQSVLYGSIKKNSVA | WASTRES | QQYHRLPLS | 0.71 0.83 0.78 | 0.77 | 3/9 (4.78)
KSSQSYLYESRNKNSVA | WASTREI | QCYHRLPLS | 1.23 1.36 1.34 | 1.31 | 3/9 (5.21)
KSSQMVLYESRNKNSVA | WASTRVC | QQYHRLPLS | 1.29 1.40 1.65 | 1.45 | 2/9 (4.77)